According to paper PMC9727182, “Identification of pharmacokinetic markers for safflower injection using a combination of system pharmacology, multicomponent pharmacokinetics, and quantitative proteomics study” (Frontiers in Pharmacology, 2022):

Columns and labels:
[1] = Stability in diluted SI at room temperature; settings: analyzed at 0, 2, 4, 8, 12, 24, and 48 h
[2] = Multicomponent pharmacokinetics in rat plasma after i.v. safflower injection (SI); settings: for AUC0-t / AUC0-∞ / Cl / Cmax / MRT0-t / MRT0-∞ / Vd / t 1/2: rat plasma, i.v. SI
Experimental: The animal experiments were approved by the Animal Care and Use Committee of the College of Animal Science (College of Bee Science), Fujian Agriculture and Forestry University (Approval Number: PZCASFAFU21012). 250 ± 20 g of male Sprague-Dawley (SD) rats were provided by Lab Animal Center in Fujian Medical University (Fuzhou, China).
Ten rats were divided into three groups (Low dose group, n = 4; medium and high groups, n = 3, respectively). […] For each rat, 2 ml of physiological saline was supplemented after 30 min sampling via intraperitoneal injection. The plasma samples were obtained by centrifugation at 3,000 rpm for 10 min and stored at −20°C until analysis.
Clear supernatant (5 μl) was injected into HPLC-MS for bioanalysis.
The sample was separated on a RD-C18 column (4.6 mm × 50 mm, 3.5 μm, Zhongpu Develop, China). The mobile phase incudes water with 0.1% acetic acid (A) and acetonitrile (B). […] The column temperature, flow rate and injection volume were set at 30°C, 0.5 ml/min and 5 μl, respectively.
Non-compartmental model was used to calculate the PK parameters by DAS 3.0 software (Chinese Pharmacologic Society, Beijing, China). A single-tailed t-test was carried out in the study.

[3] = Stability of 6 compounds of SI in rat plasma; settings: for 10h in auto-sampler vials RE: extracted rat plasma; for 6h at room temperature RE / Freeze-thaw stability (three cycles) RE / Long-term stability (-80℃,15 days) RE: rat plasma
Text: The LC-MS method was validated by linearity, limits of detection (LOD), limits of quantification (LOQ), precision, accuracy, extraction recovery, matrix effect and stability of the 6 ingredients in rat plasma. Calibration curves were plotted using weighted linear regression of the peak area ratio of analyte to the IS against the corresponding nominal concentration of the analyte. LOD and LOQ were defined as the detectable concentration at which the ratio of signal to noise was more than 3 and 10, respectively. Intra- and inter-day accuracy and precision were assessed by detecting quality control (QC) samples using five replicates of rat samples at three concentration levels on one or three validation days, respectively. Accuracy and precision were expressed by relative error (RE) and relative standard deviation (RSD), respectively. The extraction recovery and matrix effect of the 6 components at above-mentioned three concentration levels were determined. Stability was assessed under the condition of placing un-treated plasma samples at room temperature for 6 h, and extracted plasma samples in auto-sampler for 10 h, as well as placing plasma samples within freeze-thaw three cycles and at −80 °C for 15 days.

[4] = High dose (4 ml/kg), n = 3, Mean ± SD
[5] = Low dose (1 ml/kg), n = 4, Mean ± SD
[6] = Medium dose (2 ml/kg), n = 3, Mean ± SD

Substance: hydroxysafflor yellow A [HSYA]
- Stability RSD [1]: 2.56%
- detection in rat plasma ([2]; 1 h after administration (2 ml/kg of SI), preliminary test): can be detected
- AUC0-t [2, 4]: 11,015.37 ± 1,025.71 h·ng/ml
- AUC0-∞ [2, 4]: 11,453.34 ± 668.38 h·ng/ml
- Cl [2, 4]: 1.5 ± 0.17 mL/min/kg
- Cmax [2, 4]: 14,077.33 ± 17.21 ng/ml
- MRT0-t [2, 4]: 42 ± 5.4 min
- MRT0-∞ [2, 4]: 46.8 ± 6.6 min
- Vd [2, 4]: 0.06 ± 0.02 L/kg
- t 1/2 [2, 4]: 27.6 ± 7.2 min
- AUC0-t [2, 5]: 2,479.11 ± 1,312.76 h·ng/ml
- AUC0-∞ [2, 5]: 2,490.30 ± 1,317.76 h·ng/ml
- Cl [2, 5]: 2.17 ± 1.2 mL/min/kg
- Cmax [2, 5]: 2,624.50 ± 660.17 ng/ml
- MRT0-t [2, 5]: 45.6 ± 11.4 min
- MRT0-∞ [2, 5]: 46.8 ± 11.4 min
- Vd [2, 5]: 0.09 ± 0.04 L/kg
- t 1/2 [2, 5]: 28.2 ± 4.2 min
- AUC0-t [2, 6]: 5,074.18 ± 328.93 h·ng/ml
- AUC0-∞ [2, 6]: 5,461.77 ± 202.42 h·ng/ml
- Cl [2, 6]: 1.67 ± 0 mL/min/kg
- Cmax [2, 6]: 5,628.33 ± 405.14 ng/ml
- MRT0-t [2, 6]: 47.4 ± 8.4 min
- MRT0-∞ [2, 6]: 58.2 ± 3.6 min
- Vd [2, 6]: 0.09 ± 0.01 L/kg
- t 1/2 [2, 6]: 38.4 ± 4.8 min
- detected mean maximum plasma concentration ([2]; rats, after administration of 4 ml/kg of SI): 14.07 μg/mL and 23 μM
- 10h in auto-sampler vials RE ([3]; spiked 40 ng/mL): -13.75%
- 10h in auto-sampler vials RE ([3]; spiked 400 ng/mL): 1.00%
- 10h in auto-sampler vials RE ([3]; spiked 10000 ng/mL): 0.06%
- 6h at room temperature RE ([3]; spiked 40 ng/mL): -10.50%
- Freeze-thaw stability (three cycles) RE ([3]; spiked 40 ng/mL): 2.50%
- Long-term stability (-80℃,15 days) RE ([3]; spiked 40 ng/mL): 3.00%
- 6h at room temperature RE ([3]; spiked 400 ng/mL): 4.80%
- Freeze-thaw stability (three cycles) RE ([3]; spiked 400 ng/mL): 3.30%
- Long-term stability (-80℃,15 days) RE ([3]; spiked 400 ng/mL): 0.80%
- 6h at room temperature RE ([3]; spiked 10000 ng/mL): -4.43%
- Freeze-thaw stability (three cycles) RE ([3]; spiked 10000 ng/mL): 4.92%
- Long-term stability (-80℃,15 days) RE ([3]; spiked 10000 ng/mL): -3.85%

Several values for one entry are separate records, joined by “and”; a condition that tells them apart may be missing. Equal values may be shown once.
